Only a part is listed here, and it is no random draw. For some assays here: Entries with a potency or affinity are not part of this list. The source made the active and inactive calls.

For assay [1] the following is noted: Ebola virus entry assay, green fluorescence channel.
For assay [2] the following is noted: Ebola virus entry assay, ratio channel readout.
The conditions of assay [3]: Ebola virus entry assay, blue channel fluorescence.
For assay [4] the following is noted: Ebola virus entry assay, ratio channel.
The conditions of assay [5]: Ebola virus entry assay, green channel fluorescence.
The conditions of assay [6]: Ebola virus entry assay, blue channel fluorescence. This is another data set of the same source.
For assay [7] the following is noted: Ebola virus entry assay, reporter ratio channel; Channel type: primary.
The conditions of assay [8]: Ebola virus entry assay, blue channel (ratio component).
For assay [9] the following is noted: Ebola virus entry cell assay, ratio channel.
Assay [10] in a line: High-throughput drug toxicity screening in the BPDCN cell line Gen2.2 (AID 1224824).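 Further: cells exposed to compounds for 48 h before reading.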 The conditions noted are these: Gen2.2 BPDCN cells; at 45.8 µM (top of the series). An outline of the steps: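 Gen2.2 cells (500/well) in phenol red-free RPMI with 10% FBS were exposed to compounds for 48 h at 37 °C, 5% CO2. Viability was read by CellTiter-Glo luminescence and normalized to DMSO (100%) and 9.2 uM bortezomib (0%).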

In the case of `CN(CCCl)CCCl`, the molecule was classed as inactive in assay [1], in assay [2], in assay [3], in [4], in assay [5] and in [6]. Further, the result in assay [7], in assay [8] and in assay [9] was inactive. Further, in [10], the cell viability, % of control (lower = more cytotoxic) is 30.4%.

`CCC(=O)N(c1ccccc1)C1(COC)CCN(CCn2nnn(CC)c2=O)CC1`: the molecule was called inactive in assay [3], in assay [5], in assay [7] and in assay [8].

For the origin of these results see PubChem BioAssay (NCATS).
